UUG fidelity: alters start codon recognition fidelity in yeast. S. cerevisiae UUG-firefly luciferase reporter, luminescence/redox ratio. activity score, % at 18.7 µM. 0.13% of 350,000 active. AID 602363;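 active = replicate mean at a twofold rise or more, about +100% in these data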;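 also: firefly luciferase made from a UUG start codon reports start codon fidelity; reporter light over untreated wells divided by growth signal over untreated wells; some hits fall short of that in this replicate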
RAD52 inh: RAD52 (human) annealing inhibition | P43351 | recombinant RAD52 DNA annealing, FRET fluorescence | inhibition, % at 18.7 µM | 360,000 tested, 0.46% active | AID 651710;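 active = every replicate showing at least 50% inhibition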
MLL AF4-AF9 inh: blocks AF4 peptide binding to human AF9. 350,000 tested, 0.47% active. AlphaScreen, biotin-AF4 peptide binding to FLAG-AF9. inhibition, % at 10 µM;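 active = every replicate reaching a set inhibition limit, whatever the replicate mean, cut at about 25% in these data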;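 note: 0% = plate neutral control median and 100% = total signal loss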
RAD54 inh: RAD54 (human) branch migration inhibition | Q92698 | RAD54 Holliday junction branch migration, FAM/BHQ fluorescence | inhibition, % at 10.4 µM | 360,000 tested, 0.14% active;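 active = mean normalized replicate activity at least 40 and at least half of replicates scoring 40 or more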;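 note: 0% = median of neutral control wells and 100% = median of positive control wells; inhibitors cause a drop in the FAM fluorescence signal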
SIRT5 block: blocks human SIRT5 desuccinylation of peptide; Purified SirT5, succinyl-peptide AMC, trypsin-coupled fluorescence; 330,000 tested, 1.1% active; inhibition, % at 15 µM; AID 652115; Q9NXA8; in the data active = inhibition above about 15%
E-selectin induc: induces E-selectin expression in human endothelial cells. HUVEC E-selectin immunofluorescence imaging; normalized: neutral wells 0, TNF-alpha wells 100. activation, % at 7.58 µM. 260,000 tested, 0.37% active;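 active = mean E-selectin-positive cell signal at least 10% of the positive control, reached in at least 60% of replicates, without over 20% cell loss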
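Assay system: HUVEC, human umbilical vein endothelial cells / Amount: 3,000 HUVEC/well / Controls: TNF-alpha positive control, DMSO neutral control / Compound dosing: single concentration / Medium: EGM-2 over gelatin coat / Evaluation: percent E-selectin-positive cells / Signal: immunofluorescence imaging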
* = called active by the depositor; . = no result given; ! = not active in a repeat. Sampled rows, rich in hits. Any-hit rate of the full collection: about 1.8%.

Keys: A = UUG fidelity; B = RAD52 inh; C = MLL AF4-AF9 inh; D = RAD54 inh; E = SIRT5 block; F = E-selectin induc
#1 CC=Cc1ccc2n(c1=O)C[C@@H]1[C@@H](CO)[C@H](C(=O)NCc3ccccc3)N(S(C)(=O)=O)[C@H]21 (mixture of isomers)
  A: .; B: -16.1; C: -0.8; D: -2.1; E: -6.0; F: -0.2

#2 CC(C)NC(=O)N[C@H]1C=C[C@H](CC(=O)NC2Cc3ccccc3C2)O[C@@H]1CO
  A: .; B: 5.9; C: -14.7; D: -1.3; E: -2.4; F: -0.6

#3 O=C(CN(CC1CCCO1)C(=O)CNS(=O)(=O)c1ccccc1)NCc1ccc(F)cc1 (stereo not given)
  A: -3.1; B: -5.9; C: -5.1; D: -15.2; E: -1.0; F: 26.3*

#4 C[C@H](CO)N1C[C@H](C)[C@@H](CN(C)C)Oc2cc(C#Cc3ccccc3F)ccc2S1(=O)=O
  A: -3.5; B: -0.5; C: -5.2; D: 7.7; E: 4.2; F: 103.7*

#5 C[C@@H]1CN([C@H](C)CO)S(=O)(=O)c2ccc(C#Cc3ccccc3F)cc2O[C@H]1CN(C)C(=O)c1ccc2c(c1)OCO2
  A: -12.4; B: -2.6; C: 1.9; D: 6.7; E: 35.5*!; F: -0.1

#6 C[C@@H]1CN([C@@H](C)CO)S(=O)(=O)c2ccc(C#Cc3ccccc3F)cc2O[C@@H]1CN(C)C
  A: 2.8; B: 4.2; C: 7.6; D: 3.4; E: 3.4; F: 0.0

#7 COc1ccc2c3c(n(C)c2c1)[C@H](CO)N(CC1CC1)CC31CCN(C(=O)Nc2c(C)noc2C)CC1
  A: .; B: -70.2; C: 0.9; D: .; E: 2.2; F: 0.1

#8 COCCCNC(=O)CNC(=O)c1nn(-c2ccc(OC)c(Cl)c2)c(=O)c2ccccc12
  A: .; B: -4.3; C: 0.2; D: .; E: 17.1*; F: -0.2

#9 CCCNC(=O)N(C)C[C@@H]1Oc2ncc(C#CC3(O)CCCC3)cc2C(=O)N([C@H](C)CO)C[C@@H]1C
  A: 6.1; B: 14.1; C: -2.3; D: 4.1; E: 4.0; F: 0.2

#10 C[C@@H]1CN([C@H](C)CO)C(=O)c2cccc(NS(=O)(=O)c3ccc(Cl)cc3)c2O[C@H]1CN(C)Cc1ccncc1
  A: -14.9; B: -2.2; C: -0.2; D: -4.5; E: 0.0; F: 0.0

#11 CO[C@H]1CN(C)C(=O)c2ccc(NC(=O)C3CCCCC3)cc2OC[C@@H](C)N(Cc2nccs2)C[C@@H]1C
  A: 21.2; B: -28.6; C: -2.1; D: 7.8; E: 4.5; F: -0.3

#12 CC1CCCCN1CCCNC(=O)c1c(O)nc2ccccn2c1=O (stereo not given)
  A: -17.5; B: -6.5; C: 0.1; D: 5.3; E: -8.0; F: 1.2

#13 CCC1CCCCN1CCCNC(=O)c1c(O)nc2ccccn2c1=O (stereo not given)
  A: -5.3; B: -3.1; C: 0.3; D: 10.8; E: 31.9*; F: .

#14 Cc1cc(/C(N)=N/OC(=O)Nc2cccc(C(F)(F)F)c2)no1
  A: -3.6; B: -20.2; C: -3.0; D: 4.0; E: .; F: 66.8*

#15 O=C(NCc1ccc(F)cc1)C1CCCN(S(=O)(=O)c2ccc(-n3cnnn3)cc2)C1 (stereo not given)
  A: 14.3; B: -6.8; C: -3.1; D: 8.4; E: 0.3; F: .

#16 O=C(NCc1ccccc1)C1CCCN(S(=O)(=O)c2ccc(-n3cnnn3)cc2)C1 (stereo not given)
  A: -7.5; B: -10.0; C: -0.4; D: 0.3; E: 1.8; F: 31.3*

#17 COc1ccc(CNC(=O)CN2C(=O)C3C4C=CC(C4)C3C2=O)cc1 (stereo not given)
  A: .; B: -4.6; C: -5.1; D: .; E: 109.3*; F: 0.3

#18 O=C(Nc1ccccc1)N1CCCCN2[C@H](CO)[C@H](c3ccc(-c4ccccc4F)cc3)[C@H]2C1
  A: 4.8; B: 50.1*; C: 11.6; D: 3.2; E: -0.7; F: 0.2

#19 O=C(Nc1ccc(F)cc1)N1CCCCN2[C@H](C1)[C@H](c1ccc(-c3ccccc3F)cc1)[C@@H]2CO
  A: 0.1; B: 13.3; C: -4.4; D: 5.9; E: 17.6*; F: .

#20 Cc1ccc(-c2ccc([C@@H]3[C@@H](CO)N4CCCCN(C(=O)Nc5cccc(F)c5)C[C@@H]34)cc2)cc1
  A: -18.8; B: -1.8; C: -6.8; D: 11.5; E: 17.5*; F: -0.6

Single records, from the list above.
Entry for `O=C(NCc1ccccc1)C1CCCN(S(=O)(=O)c2ccc(-n3cnnn3)cc2)C1` (stereo not given) : UUG fidelity: -7.5; RAD52 inh: -10.0; MLL AF4-AF9 inh: -0.4; RAD54 inh: 0.3; SIRT5 block: 1.8; E-selectin induc: 31.3*
Entry for `O=C(Nc1ccccc1)N1CCCCN2[C@H](CO)[C@H](c3ccc(-c4ccccc4F)cc3)[C@H]2C1` : UUG fidelity: 4.8; RAD52 inh: 50.1*; MLL AF4-AF9 inh: 11.6; RAD54 inh: 3.2; SIRT5 block: -0.7; E-selectin induc: 0.2

Next part:
Keys: A = UUG fidelity; B = RAD52 inh; C = MLL AF4-AF9 inh; D = RAD54 inh; E = SIRT5 block; F = E-selectin induc
#21 O=C(Nc1ccc(F)cc1)N1CCCCN2[C@H](C1)[C@@H](c1ccc(-c3ccccc3F)cc1)[C@@H]2CO
  A: -1.5; B: 55.3*; C: -1.2; D: 2.0; E: 10.9; F: .

#22 Cc1ccc(-c2ccc([C@@H]3[C@H](CO)N4CCCCN(C(=O)Nc5cccc(F)c5)C[C@@H]34)cc2)cc1
  A: -5.3; B: 39.2; C: 4.1; D: 2.8; E: 0.0; F: .

#23 OC[C@H]1[C@@H](c2ccc(-c3cccc(F)c3)cc2)[C@H]2CN(CCC(F)(F)F)CCCCN21
  A: -3.9; B: -10.7; C: 16.3; D: 1.1; E: 24.2*; F: -0.6

#24 CCN(CC)c1ccc(NC(=S)Nc2ccc(F)cc2)cc1
  A: -3.9; B: -10.1; C: 26.8*; D: 3.5; E: -0.7; F: .

#25 C[C@H](CO)N1C[C@H](C)[C@@H](CN(C)C(=O)Nc2ccc(F)cc2)OCCCC[C@H](C)Oc2ccc(NC(=O)CCC(F)(F)F)cc2C1=O
  A: -3.5; B: -19.2; C: -2.0; D: -7.5; E: -3.1; F: .

#26 C[C@H](CO)N1C[C@H](C)[C@H](CN(C)Cc2ccc(C(F)(F)F)cc2)OCCCC[C@H](C)Oc2ccc(N(C)C)cc2C1=O
  A: 0.9; B: 9.1; C: 31.8*; D: -5.4; E: 1.7; F: 0.0

#27 C[C@@H]1CN([C@@H](C)CO)C(=O)c2cc(N(C)C)ccc2O[C@@H](C)CCCCO[C@@H]1CN(C)Cc1ccc(C(F)(F)F)cc1
  A: -0.4; B: -16.6; C: 39.1*; D: -2.6; E: 8.7; F: 0.2

#28 C[C@@H]1CN([C@H](C)CO)C(=O)c2cc(N(C)C)ccc2O[C@@H](C)CCCCO[C@@H]1CN(C)Cc1ccc(C(F)(F)F)cc1
  A: -1.1; B: -12.8; C: 34.8*; D: 0.7; E: 6.6; F: 1.2

#29 C[C@H](CO)N1C[C@H](C)[C@@H](CN(C)Cc2ccc(C(F)(F)F)cc2)OCCCC[C@H](C)Oc2ccc(N(C)C)cc2C1=O
  A: -0.7; B: -22.8; C: 21.7; D: 0.6; E: 5.0; F: 1.4

#30 C[C@@H]1CN([C@H](C)CO)C(=O)c2cc(N(C)C)ccc2O[C@@H](C)CCCCO[C@H]1CN(C)Cc1ccc(C(F)(F)F)cc1
  A: 2.9; B: -4.2; C: 32.8*; D: -2.5; E: -8.4; F: -0.6

#31 COc1ccc(CN(C)C[C@H]2OCCCC[C@H](C)Oc3ccc(N(C)C)cc3C(=O)N([C@H](C)CO)C[C@H]2C)cc1
  A: 3.1; B: 5.7; C: 4.4; D: -22.7; E: 21.9*; F: -0.3

#32 COc1ccc(CN(C)C[C@H]2OCCCC[C@@H](C)Oc3ccc(N(C)C)cc3C(=O)N([C@@H](C)CO)C[C@H]2C)cc1
  A: 3.7; B: 9.7; C: 8.7; D: -6.0; E: -1.9; F: -0.1

#33 C[C@@H]1CN([C@@H](C)CO)C(=O)c2cc(N(C)C)ccc2O[C@@H](C)CCCCO[C@H]1CN(C)Cc1ccc(C(F)(F)F)cc1
  A: -2.1; B: 4.4; C: 37.5*; D: 0.1; E: -0.2; F: -0.5

#34 C[C@@H]1CCCCO[C@H](CN(C)Cc2ccc(C(F)(F)F)cc2)[C@@H](C)CN([C@H](C)CO)C(=O)c2cc(N(C)C)ccc2O1
  A: 1.3; B: 13.2; C: 10.8; D: 10.4; E: 0.2; F: 2.0

#35 C[C@H](CO)N1C[C@H](C)[C@@H](CN(C)C(=O)C2CC2)Oc2cc(-c3ccccc3F)ccc2S1(=O)=O
  A: -0.6; B: 10.9; C: -16.9; D: 3.4; E: -4.3; F: -0.2

#36 COc1cccc(Oc2nc(N)ncc2[N+](=O)[O-])c1
  A: .; B: -7.8; C: 1.2; D: .; E: 2.6; F: 28.8*

#37 COc1ccccc1CNC(=O)C[C@H]1CC[C@@H](NC(=O)CC2CC2)[C@@H](CO)O1
  A: -21.9; B: -11.5; C: -2.5; D: -8.5; E: -0.6; F: 0.1

Bioassay records (PubChem BioAssay)
